# Shown are actives, neighbours in structure and some others; about 13% of the full set was active somewhere.
# miR-21 reporter – raises the signal of a miR-21 reporter; HeLa miR-21 FLuc reporter, luciferase, 48 h; Potency, µM (series often up to 38.3 µM), inactives show top-dose reporter change, positive = more light; 340,000 tested, under 10 active; active = well fitted rising curve with a large enough effect; inconclusive = small, poorly fitted or top-dose-only effect; inactive = no such curve, though single readings can be large or run the other way;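 also: % of control where 0% means no effect; miR-21 action dims this reporter so a rising signal means less miR-21 action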
#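 Luminescence from a firefly luciferase reporter carrying a miR-21 binding site downstream, stably expressed under a CMV promoter in HeLa cells that make miR-21 endogenously, reports miRNA modulation after 48 h compound exposure up to approximately 40uM final.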
# KDM4E inh – blocks human JMJD2E demethylase activity; 1.6% of 230,000 active; JMJD2E catalytic domain, FDH-coupled NADH fluorescence (FDH is formaldehyde dehydrogenase); B2RXH2; Potency, µM (highest dose often 57.1 µM), inactives show at the top dose activity change, negative = inhibition, actives largely listed as inhibitors; active = well fitted inhibition curve with a large enough effect, not every such curve was filed as active; inconclusive = small, poorly fitted or top-dose-only effect, or another doubt; inactive = no such curve, though single readings can be large or run the other way;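 note: potency is the fitted concentration of half-maximal effect; 0% = wells with enzyme and -100% = buffer wells without enzyme; nearly all actives have a fitted effect of over 50% in size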
# G9a block – G9a (human) methyltransferase inhibition; Q96KQ7; G9a H3K9 monomethylation, AlphaScreen, 2 h; Potency, µM (top dose mostly 102 µM), for the others: top-dose activity, negative = inhibition, usual class: inhibitors; 8.8% of 350,000 active; note: potency is the fitted concentration of half-maximal effect; % is set by controls: 0 for no effect and ±100 for the full control effect; nearly all actives have a fitted effect of over 75% in size
#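 Enzyme 20 nM + cpd, 15 min RT; add b-H3K9 pep 500 nM / SAM 20 uM; 2 h RT; anti-H3K9me1 Ab 0.5 ug/mL + SA donor / anti-rabbit acceptor beads 20 ug/mL each, 10 min; AlphaScreen read.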
# Sfp inh – blocks B. subtilis Sfp PPTase activity. Q9F4F7. Biochemical Sfp PPTase activity, qHTS. Potency, µM, for inactives: max response, negative = inhibition, usual class: inhibitors. 310,000 tested, 3.5% active. AID 1490; active = well fitted inhibition curve with a large enough effect; inconclusive = small, poorly fitted or top-dose-only effect, or another doubt; inactive = no such curve, though single readings can be large or run the other way;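 also: the enzyme is Sfp with the accession as filed and its product quenches rhodamine fluorescence; potency is read from the fitted curve at half-maximal effect; 0% = enzyme reaction without inhibitor and -100% = no enzyme wells; top concentration of the series not given in the record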
#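 Compounds were incubated with enzyme (final 15 nM) for 15 min at room temperature before substrate addition started the reaction. Fluorescence at 525 nm excitation, 598 nm emission was recorded immediately and after 30 minutes.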
# ALDH1A1 block – inhibitors of human aldehyde dehydrogenase 1A1; Purified ALDH1A1, NADH fluorescence, propionaldehyde substrate; P00352; Potency, µM (top dose mostly 75.3 µM), without a hit: at the top dose activity, negative = inhibition, hits mostly inhibitors; 7.3% of 220,000 active; active = well fitted inhibition curve with a large enough effect, not every such curve was filed as active; inconclusive = small, poorly fitted or top-dose-only effect, or another doubt; inactive = no such curve, though single readings can be large or run the other way;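 note: potency is the fitted concentration of half-maximal effect; plate controls were no enzyme wells and a reference inhibitor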
# Lamin A splicing – changes lamin A minigene splicing in HeLa cells; Potency, µM (top dose mostly 46.1 µM), inactives show top-dose ratio change, negative = inhibition, most hits filed as inhibitors; HeLa LMNA splicing GFP/RFP minigene ratio, 48 h; 0.01% of 200,000 active; AID 1487; active = well fitted inhibition curve with a large enough effect in the signal ratio, with a control signal flat, not every such curve was filed as active; inconclusive = small, poorly fitted or top-dose-only effect, or effect the other way, or a change in a side signal; the % refers to the signal ratio; note: potency is the fitted concentration of half-maximal effect; % is set by controls: 0 for no effect and ±100 for the full control effect
#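 Read-out is the ratio of GFP to DsRed2 object intensity, acquired by 488 nm laser-scanning cytometry on HeLa lamin A-EGFP minigene reporter cells. Compound incubation 48 hrs at 37 °C in Opti-MEM with 2% FBS; DMSO 0.5% final.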
# An asterisk follows results filed as active; ? = inconclusive; · = no result; [ ] = dose if it differs, or a comment. Unless noted, calls come from the whole dose curve; as a rule, active = well fitted curve in the direction sought with a large enough effect; inconclusive = small, poorly fitted or top-dose-only effect, or another doubt; inactive = no such curve, though single readings can be large; an effect the other way counts as inactive or inconclusive.
1) COC(=O)c1c(NC(C)=O)c2c3c(sc2n1Cc1cc(C)ccc1C)CCCC3
2) CC(=O)N(Cc1c(C)nn(-c2ccccc2)c1Cl)c1ccc(Cl)cc1
3) Cc1nn(-c2ccccc2)c(Cl)c1CN(C(=O)CCl)c1cccc2ccccc12
4) Cc1nn(-c2ccccc2)c(Cl)c1CN(C(=O)CCl)c1ccc(Cl)cc1
5) Cc1nc(Nc2cnc(/C=C/c3cc(C(=O)Nc4cccc(C(F)(F)F)c4)ccc3C)cn2)cc(N2CCNCC2)n1
6) CCC(=O)Nc1cc(-c2cccc(C)c2)nn1-c1ccccc1
7) O=C1CN(C(=O)CNC(=O)c2ccccc2Cl)c2ccccc2N1
8) COc1ccccc1CNC(=O)CNC(=O)N1CC(=O)Nc2ccccc21

Compound,1,2,3,4,5,6,7,8
Sfp inh,·,-2%,-6%,-6%,50µM*,·,-11%,16%
KDM4E inh,·,7%,3%,8%,·,·,2%,·
Lamin A splicing,8%[46 µM],6%,?,?,·,-11%[46 µM],·,·
miR-21 reporter,2%,1%,?,?,?,-22%,-2%,0%
G9a block,7%[59 µM],-1%,-6%[59 µM],?,32µM*,18%[59 µM],7%,21%
ALDH1A1 block,·,-3%,28µM*,7.1µM*,·,·,?,·

# Entries listed so far that bear a hit mark in ALDH1A1 block:
3) Cc1nn(-c2ccccc2)c(Cl)c1CN(C(=O)CCl)c1cccc2ccccc12
4) Cc1nn(-c2ccccc2)c(Cl)c1CN(C(=O)CCl)c1ccc(Cl)cc1

Compound,3,4
Sfp inh,-6%,-6%
KDM4E inh,3%,8%
Lamin A splicing,?,?
miR-21 reporter,?,?
G9a block,-6%[59 µM],?
ALDH1A1 block,28µM*,7.1µM*

# Going on with the list:
9) O=C1CN(C(=O)CNCc2ccccc2)c2ccccc2N1
10) COc1ccccc1CNCC(=O)N1CC(=O)Nc2ccccc21
11) CNC(=O)C1C(=S)NC(N)=C(C#N)C1c1ccccc1 (stereo not drawn)
12) N#CC1=C(N)Nc2ncnn2C1c1ccccc1 (stereo not drawn)
13) CN(C)CCCN(C(=O)CCS(=O)(=O)c1ccccc1)c1nc2cc3c(cc2s1)OCO3
14) CCCC(=O)N(CCN1CCOCC1)c1nc2c(OC)ccc(OC)c2s1
15) CN(C)CCN(C(=O)CCS(=O)(=O)c1ccccc1)c1nc2c(F)cccc2s1
16) Cc1cccc2sc(N(CCCN(C)C)C(=O)CCc3ccccc3)nc12

Compound,9,10,11,12,13,14,15,16
Sfp inh,-4%,-29%,4µM*,13%,-10%,7%,2%,?
KDM4E inh,?,?,?,-12%,·,·,·,-4%
Lamin A splicing,15%[46 µM],·,?,13%,·,·,·,-16%
miR-21 reporter,-2%,-4%,0%,-7%,?,-9%,-4%,?
G9a block,35µM*,10µM*,13µM*,22%[59 µM],·,?,28µM*,?
ALDH1A1 block,?,-12%,18µM*,6%,·,·,·,9%

17) COc1ccc(C)c2sc(N(CCCN(C)C)C(=O)CS(=O)(=O)c3ccc(F)cc3)nc12
18) COc1ccc(Cl)c2sc(N(CCN(C)C)C(=O)CCS(=O)(=O)c3ccc(C)cc3)nc12
19) Cc1ccc2sc(N(CCCN(C)C)C(=O)CCS(=O)(=O)c3ccccc3)nc2c1C
20) COc1ccc(OC)c2sc(N(CCCN(C)C)C(=O)CCS(=O)(=O)c3ccccc3)nc12
21) CC[C@@H]1[C@H]2CCCC(=O)N3CC[C@@H](C[C@@H]1Nc1ccccc1)[C@@H]23
22) COc1ccccc1C(=O)Nc1cccc(C(=O)OCc2cc(=O)n3cc(C)sc3n2)c1
23) CCOCCCNC(=O)C1CCN(c2cc(C)nc3c(-c4ccc(Cl)cc4)c(C)nn23)CC1
24) CN(C)c1ccc(NC(=O)Cn2c(SCc3ccc(F)cc3)nc3cccnc32)cc1

Compound,17,18,19,20,21,22,23,24
Sfp inh,·,·,?,·,8%,·,·,·
KDM4E inh,·,·,·,·,·,·,·,·
Lamin A splicing,·,·,·,·,·,-10%[46 µM],·,?
miR-21 reporter,·,·,?,·,5%,-25%,0%,-27%
G9a block,3%[59 µM],10µM*,16µM*,20µM*,-16%,-2%[59 µM],4%[59 µM],-36%[59 µM]
ALDH1A1 block,·,·,·,·,·,·,·,·

# Profiles, quoted from the list:
# CCOCCCNC(=O)C1CCN(c2cc(C)nc3c(-c4ccc(Cl)cc4)c(C)nn23)CC1 as listed: Sfp inh: ·; KDM4E inh: ·; Lamin A splicing: ·; miR-21 reporter: 0%; G9a block: 4%[59 µM]; ALDH1A1 block: ·
# COc1ccccc1C(=O)Nc1cccc(C(=O)OCc2cc(=O)n3cc(C)sc3n2)c1 as listed: Sfp inh: ·; KDM4E inh: ·; Lamin A splicing: -10%[46 µM]; miR-21 reporter: -25%; G9a block: -2%[59 µM]; ALDH1A1 block: ·

# Next part
25) Cc1oc(-c2ccc(Cl)cc2)nc1Cn1c(=O)cc(C)c2c(C)nn(-c3cccc(F)c3)c21
26) CC1=C(C(=O)Nc2ccc(C)cc2C)C(c2ccc(Cl)cc2)n2nc(C(=O)OC(C)C)nc2N1 (stereo not drawn)
27) Cc1nnc(NC(=O)CSc2ccc(-c3cccnc3)nn2)s1
28) COc1ccc(NC(=O)CSc2ccc(-c3ccccn3)nn2)cc1OC
29) CCc1nnc(NC(=O)CSc2ccc(-c3cccs3)nn2)s1

Compound,25,26,27,28,29
Sfp inh,·,-2%,40µM*,1%,-23%
KDM4E inh,·,-5%,5%,?,-19%
Lamin A splicing,?,-10%,·,-11%,·
miR-21 reporter,-4%,-1%,-3%,0%,-21%
G9a block,-2%[59 µM],45µM*,?,?,-11%
ALDH1A1 block,·,-12%,-13%,14µM*,-4%

# Screening results deposited in PubChem by National Center for Advancing Translational Sciences (NCATS).
